The values below come from publication PMC3173241 (The Journal of Experimental Medicine, 2011).

The target in the test is linear ubiquitin oligomer consisting of nine ubiquitins (UniProt P0CG48). Nature of the test: pull-down.

B1: human ABIN1, GST at the N terminus and His6 at the C terminus (natural protein)
chain: MEGRGPYRIYDPGGSVPSGEASAAFERLVKENSRLKEKMQGIKMLGELLEESQMEATRLRQKAEELVKDNELLPPPSPSLGSFDPLAELTGKDSNVTASPTAPACPSDKPAPVQKPPSSGTSSEFEVVTPEEQNSPESSSHANAMALGPLPREDGNLMLHLQRLETTLSVCAEEPDHGQLFTHLGRMALEFNRLASKVHKNEQRTSILQTLCEQLRKENEALKAKLDKGLEQRDQAAERLREENLELKKLLMSNGNKEGASGRPGSPKMEGTGKKAVAGQQQASVTAGKVPEVVALGAAEKKVKMLEQQRSELLEVNKQWDQHFRSMKQQYEQKITELRQKLADLQKQVTDLEAEREQKQRDFDRKLLLAKSKIEMEETDKEQLTAEAKELRQKVKYLQDQLSPLTRQREYQEKEIQRLNKALEEALSIQTPPSSPPTAFGSPEGAGALLRKQELVTQNELLKQQVKIFEEDFQRERSDRERMNEEKEELKKQVEKLQAQVTLSNAQLKAFKDEEKAREALRQQKRKAKASGERYHVEPHPEHLCGAYPYAYPPMPAMVPHHGFEDWSQIRYPPPPMAMEHPPPLPNSRLFHLPEYTWRLPCGGVRNPNQSSQVMDPPTARPTEPESPKNDREGPQ
Turning to B1, the binding result is “binds”.
